Source: patent US6350596B2, “Method for producing L-phenylalanine” (Ajinomoto Co., Inc., priority 2000, dated 2002)

System: Methylophilus methylotrophus pFp^R phe^R mutant strain No. 227-16
Format: cell-based
Excerpt: The new mutants which were resistant to 1 g/L of meta-fluorophenylalanine (hereinafter abbreviated to mFp^R) were isolated from the strain No. 227-16 after NG-mutagenesis as it was described above.

N[C@@H](Cc1cccc(F)c1)C(=O)O [m-fluorophenylalanine] was tested, and the “concentration to which the strain was resistant” value was 0.5 g/L.
